Literature values, collected in US20240024337A1, “INTERACTION OF SARS-COV-2 PROTEINS WITH MOLECULAR AND […] […] HOST CELLS AND FORMULATIONS TO TREAT COVID-19” (AKSEERA PHARMA CORP., priority 2020, published 2024).

Test system: mouse forebrain tissues
Conditions: 100 μM; oxygen-glucose deprivation

With `C=C(C)[C@@H]1CCC(C)=C[C@H]1c1c(O)cc(CCCCC)cc1O` [Cannabidiol, 2-[(1R,6R)-3-Methyl-6-(1-methylethenyl)-2-cyclohexen-1-yl]-5-pentyl-1,3-benzenediol] as the compound, how does the “attenuation of caspase 9 activation” value read?
Its value is ~50%.
